# Measured values published in PubChem BioAssay AID463082 (The Scripps Research Institute Molecular Screening Center, 2010).
# By UniProt entry, the sequences of proteins in these tests, tags left out. Where a name states a change or a piece, a line headed by the entry shows the natural chain unless it says otherwise.
# UniProt Q13093: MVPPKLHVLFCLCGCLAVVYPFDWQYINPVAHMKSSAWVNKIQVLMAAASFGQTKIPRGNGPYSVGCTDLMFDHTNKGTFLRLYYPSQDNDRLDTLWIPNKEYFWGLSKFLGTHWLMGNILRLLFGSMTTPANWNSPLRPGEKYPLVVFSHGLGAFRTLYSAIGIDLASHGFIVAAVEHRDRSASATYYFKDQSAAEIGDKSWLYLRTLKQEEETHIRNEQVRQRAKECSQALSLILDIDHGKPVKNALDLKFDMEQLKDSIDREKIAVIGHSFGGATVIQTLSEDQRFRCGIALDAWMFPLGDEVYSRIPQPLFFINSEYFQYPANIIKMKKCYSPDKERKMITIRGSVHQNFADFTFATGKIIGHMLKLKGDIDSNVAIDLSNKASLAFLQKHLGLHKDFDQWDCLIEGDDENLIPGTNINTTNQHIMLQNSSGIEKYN
# Only a part is listed here, and it is no random draw. Activity calls are given as the source filed them.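 How the source made its calls: active means inhibition above the mean inhibition across the screen plus 3 SD (cut at about 25% in these data); inactive means the rest.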
# Target: Platelet-activating factor acetylhydrolase (Homo sapiens) (UniProt Q13093)
# Assay: pPAFAH enzyme inhibitors, primary screen, biochemical, fluorescence polarization, human (AID 463082);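 further: inhibitors block binding of the rhodamine activity-based probe so polarization drops; 0% = enzyme with DMSO and 100% = wells lacking pPAFAH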
# Conditions: recombinant pPAFAH, FP-rhodamine probe fluorescence polarization; at 3.39 µM; active compounds read high
row,Compound,inhibition
1,CCN(N=Nc1nonc1N)c1nonc1N,inactive: 0.43%
2,O=[N+]([O-])c1cc([N+](=O)[O-])c(CCN2CCOCC2)c([N+](=O)[O-])c1,active: 49.5%
3,CN(C(=O)Cc1ccc(Cl)c(Cl)c1)[C@H]1CCCC[C@@H]1N1CCCC1,inactive: 16.6%
4,Cc1ccc(NP(=O)(Oc2ccccc2F)Oc2ccccc2F)nc1,inactive: 2.13%
5,Cc1cc(SC(NC(=O)c2ccc(F)cc2)C(Cl)(Cl)Cl)ncn1 (stereo not given),inactive: -1.07%
6,CCOP(=O)(Nc1ccccc1)OCC,inactive: 2.33%
7,O=P(Nc1nc2ccc(Cl)cc2s1)(c1ccccc1)c1ccccc1,inactive: 4.6%
8,CC(=O)Nc1ccc([As](=O)(O)O)cc1,inactive: 4.95%
9,O=C(O)c1ccccc1[As](=O)(O)O,inactive: 1.13%
10,O=C(NC(Sc1ccncn1)C(Cl)(Cl)Cl)c1ccccc1 (stereo not given),inactive: 15.6%
11,Cc1c2non([O-])c-2c(C)[n+](=O)[n+]1[O-],inactive: 3.88%
12,Oc1ccccc1CNc1ccccn1,inactive: 1.4%
13,Nc1cc(N)c2nonc2c1[N+](=O)[O-],inactive: 14.7%
14,CC(C)CC(=O)NC(Sc1ccc(Cl)cc1)C(Cl)(Cl)Cl (stereo not given),inactive: 0.76%
15,CN1CCCC(OC(=O)C(c2ccccc2)c2ccccc2)C1 (stereo not given),inactive: -0.49%
16,Clc1ccc(Cl)c(NC2=NCC(CBr)S2)c1 (stereo not given),inactive: 3.06%
17,Cc1ccc(OP(=O)(Nc2nccs2)Oc2ccc(C)cc2)cc1,inactive: -3.2%
18,COc1ccccc1OP(=O)(Nc1ccc(C)cn1)Oc1ccccc1OC,inactive: 2.28%
19,Cc1ccc(N/C(=N/P(=O)(N2CCOCC2)N2CCOCC2)N2CCOCC2)cc1,inactive: -2.04%
20,CN(C(=O)Cc1ccc(Cl)c(Cl)c1)[C@H]1CCCC[C@H]1N1CCCC1,inactive: 3.04%
21,NC(=O)c1cc([N+](=O)[O-])cc([N+](=O)[O-])c1N,inactive: -0.23%
22,CC1CCN(C(=O)Oc2c(Cl)cc(Cl)c3cccnc23)CC1,inactive: 1.58%
23,CN(C)C(=O)OCCc1n(C)cc[n+]1C,inactive: 2.7%
24,CC(C)=N/N=C(\N)N[N+](=O)[O-],inactive: -4.8%
25,CCN(/C(=N/P(=O)(N1CCOCC1)N1CCOCC1)N1CCOCC1)c1ccc(OC)cc1,inactive: 7.49%

row,Compound,inhibition
1,C[N+]1=C2C=CC=CC=C2SC12C([N+](=O)[O-])=CC([N+](=O)[O-])=C[C-]2[N+](=O)[O-] (stereo not given),active: 40.2%
2,Nc1ccc([As](=O)(O)c2ccc(N)cc2)cc1,inactive: 5.91%
3,O=[N+]([O-])c1cc([N+](=O)[O-])c(CCNc2ccccc2)c([N+](=O)[O-])c1,active: 33.7%
4,CCc1nc2c(n1)c1c(non1O)c1c2no[n+]1[O-],inactive: 6.32%
5,Cc1ccc(NP(=O)(Oc2ccccc2)Oc2ccccc2)nc1,inactive: -11.8%
6,CC(=O)N1C2C3N(C(C)=O)C1C1N(C(C)=O)C(C(N1C(C)=O)N3C(C)=O)N2C(C)=O,inactive: 4.06%
7,O=[N+]([O-])c1cccc2n[nH]nc12,inactive: 1.28%
8,COc1ccc(C2=NCC(CBr)S2)cc1 (stereo not given),inactive: -0.76%
9,O=[N+]([O-])c1cccc(NC2=NCC(CBr)S2)c1 (stereo not given),inactive: 2.49%
10,O=[N+]([O-])c1ncn(CCn2ncnc2[N+](=O)[O-])n1,inactive: 1.27%
11,CC(C)(C)C(=O)NC(Sc1ccncn1)C(Cl)(Cl)Cl (stereo not given),inactive: -0.22%
12,O=C(Nc1cc([As](=O)(O)O)ccc1O)c1ccccc1,inactive: 1.15%
13,O=C(OC1CN2CCC1CC2)c1cccc(Cl)c1 (stereo not given),inactive: 5.21%
14,C(Cc1nn[nH]n1)Cc1nn[nH]n1,inactive: -1.38%
15,Nc1ccc([As](=O)(O)c2ccc([N+](=O)[O-])cc2)cc1,inactive: 1.55%
16,O=[As](O)(c1ccccc1)c1ccc(O)cc1,inactive: 0.98%
17,O=[N+]([O-])c1ncn(CCn2cnc([N+](=O)[O-])n2)n1,inactive: 2.82%
18,CC(=O)NC(SC(=S)N(C)C)C(Cl)(Cl)Cl (stereo not given),inactive: -0.15%
19,O=[N+]([O-])c1ccc(O)c(/C=N/Nc2ccc([N+](=O)[O-])cc2[N+](=O)[O-])c1,inactive: 4.36%
20,C[C@H]1OP(=O)(Oc2ccccc2)[C@H](O)[C@H](O)[C@H]1N=[N+]=[N-] (stereo not given in full),inactive: -1.66%
21,O=P(Nc1nc2ccccc2s1)(c1ccccc1)c1ccccc1,inactive: 4.33%
22,CN(C)C1(CNC(=O)c2ccc(Cl)c(S(N)(=O)=O)c2)CCCCC1,inactive: 9.74%
23,O=P(Nc1ccccn1)(c1ccc(Br)cc1)c1ccc(Br)cc1,inactive: 0.9%
24,c1nnnn1CCn1cnnn1,inactive: -4.86%
25,O=P(Nc1nccs1)(c1ccccc1)c1ccccc1,inactive: -2%

row,Compound,inhibition
1,CC(C)C(=O)NC(Sc1ccccc1)C(Cl)(Cl)Cl (stereo not given),inactive: 2.74%
2,CC(=O)Nc1ccc(Oc2c([N+](=O)[O-])cc([N+](=O)[O-])cc2[N+](=O)[O-])cc1,inactive: 2.22%
3,CC(=O)Nc1ccc([As](=O)(O)O)c(O)c1,inactive: -0.57%
4,C[C@H]1OP(=O)(Oc2ccccc2)C[C@@H]2O[C@@H]21 (stereo not given in full),inactive: 9.36%
5,C[C@@H]1C=CCP(=O)(Oc2ccccc2)O1 (stereo not given in full),inactive: 2.78%
6,Cc1ccccc1CN(C)C(=O)COC(=O)C(O)(c1ccccc1)c1ccccc1,inactive: 2.02%
7,CC(=O)c1ccc(N2CC2c2ccncc2)cc1 (stereo not given),inactive: 4.91%
8,CC(C)(C)C(=O)NC(Sc1ccccc1)C(Cl)(Cl)Cl (stereo not given),inactive: 7.3%
9,CCOc1ccc(C2=NCC(CBr)S2)cc1 (stereo not given),inactive: -2.23%
10,O=P1(Nc2nc3ccc(Cl)cc3s2)COc2ccccc2O1 (stereo not given),inactive: 1.58%
11,CN(C)C(=O)Oc1noc2ccccc12,inactive: -1.53%
12,CC(NC(=O)COC(=O)C(O)(c1ccccc1)c1ccccc1)c1ccccc1 (stereo not given),inactive: 0.41%
13,Cc1ccccc1OP(=O)(Nc1ccccn1)Oc1ccccc1C,inactive: 7.09%
14,CCC(=O)N1C2C3N(C(=O)CC)C1C1N(C(=O)CC)C(C(N1C(=O)CC)N3C(=O)CC)N2C(=O)CC,inactive: 3.34%
15,O=C(OC1CN2CCC1CC2)c1ccccc1 (stereo not given),inactive: -7.26%
16,Cc1ccc(OP(=O)(Nc2ccccn2)Oc2ccc(C)cc2)cc1,inactive: 5.68%
17,CC(=O)NC(SC(=S)N(CC(C)C)CC(C)C)C(Cl)(Cl)Cl (stereo not given),inactive: 0.36%
18,COC(=O)c1cc2c(s1)N=C(c1ccccc1)N(C)P2(=O)N1CCOCC1 (stereo not given),inactive: 3.7%
19,CCOC(=O)NC(Sc1ccccc1)C(Cl)(Cl)Cl (stereo not given),inactive: 7.3%
20,Cc1ccc(NP(=O)(Oc2cccc(C)c2)Oc2cccc(C)c2)nc1,inactive: 1.3%
21,c1ccc(-c2nn[nH]n2)c(-c2nn[nH]n2)c1,inactive: -2.55%
22,O=C(NC1CCS(=O)(=O)C1)NP(=S)(Oc1ccccc1)Oc1ccccc1 (stereo not given),inactive: 1.36%
23,CCNC(=S)/N=C(\N)N[N+](=O)[O-],inactive: 3.89%
24,CN(C(=O)Cc1ccccc1)[C@@H]1CC[C@]2(CCCO2)C[C@H]1N1CCCC1,inactive: 2.52%
25,CCOP1(=S)c2c(C)nn(CCC#N)c2N=C(c2ccc(F)cc2)N1C (stereo not given),inactive: 3.8%

row,Compound,inhibition
1,N#CCCN(C(=O)COC(=O)C(O)(c1ccccc1)c1ccccc1)c1ccc(F)cc1,inactive: -0.95%
2,CN(C(=O)Cc1ccc(Cl)c(Cl)c1)[C@H]1CC[C@@]2(CCCO2)C[C@@H]1N1CCCC1,inactive: 4.39%
3,O=[N+]([O-])c1ccc2c(c1)nnn2O,inactive: 3.44%
4,CN(C)C(=O)c1cc([N+](=O)[O-])cc2c1-c1c(cc([N+](=O)[O-])cc1[N+](=O)[O-])C2=O,active: 33.5%
5,NC(=O)Nc1ccc([As](=O)(O)O)cc1,inactive: 0.82%
6,O=C(O)COc1ccc([As](=O)(O)O)cc1[N+](=O)[O-],inactive: 7.94%
7,Nc1ccccc1[As](=O)(O)c1ccccc1,inactive: -2.52%
8,O=P(Nc1nccs1)(Oc1ccccc1)Oc1ccccc1,inactive: -3.57%
9,O=P(Nc1nccs1)(c1ccccc1)c1nc2ccccc2s1 (stereo not given),inactive: 4.03%
10,CCOP1(=S)c2c(C)nn(CCC#N)c2N=C(c2ccccc2F)N1C (stereo not given),inactive: 2.27%
11,CS(=O)(=O)c1cc([N+](=O)[O-])c2no[n+]([O-])c2c1,inactive: 2.17%
12,CCOP(=O)(Nc1cccc2ccccc12)OCC,inactive: 6.61%
13,COc1cc(C2NCCC3(OCCO3)C2(C)C)cc(OC)c1OC (stereo not given),inactive: -0.3%
14,Nc1cccc2c([As](=O)(O)O)cccc12,active: 43.1%
15,Cc1ccc(NCCc2c([N+](=O)[O-])cc([N+](=O)[O-])cc2[N+](=O)[O-])cc1,active: 27.5%
16,CCCOP(=S)(Nc1nc(N)cc(=O)[nH]1)OCCC,inactive: 1.99%
17,Cc1cccc(OCC(=O)OC2CN3CCC2CC3)c1 (stereo not given),inactive: 5.2%
18,O=[As](O)(c1cccc(O)c1)c1cccc(O)c1,inactive: 3.39%
19,O=C(OC1CN2CCC1CC2)c1ccc(Cl)cc1 (stereo not given),inactive: 0.14%
20,CS(=O)(=O)c1ccc(Cl)c(NC(=O)COC(=O)C(O)(c2ccccc2)c2ccccc2)c1,inactive: 3.77%
21,O=[As](O)(O)c1cccnc1,inactive: -3.55%
22,COc1cc(C(=O)NCC2(N3CCOCC3)CCCCC2)cc(Cl)c1OC(C)C,inactive: 2.51%
23,CN(C(=O)Cc1ccc(Cl)c(Cl)c1)[C@@H]1CCCC[C@H]1N1CCCC1,inactive: -0.4%
24,CC(C)/C=N\N=C(\N)N[N+](=O)[O-],inactive: -1.19%
25,CC1(CBr)Cn2c(nc3ccccc3c2=O)S1 (stereo not given),inactive: 2.48%
